One molecule from ChEMBL document CHEMBL1135155, “Optimization of the beta-aminoester class of factor Xa inhibitors. Part 2: Identification of FXV673 as a potent and selective inhibitor with excellent In vivo anticoagulant activity” (Bioorg Med Chem Lett, 2002) can be followed below.

The nature of this experiment: Selectivity ratio as Ki of Plasmin / Ki of factor Xa.

Take `COC(=O)[C@H](Cc1cccc(C(=N)N)c1)[C@@H](C)NC(=O)c1ccc(-c2ccccc2)cc1`: the Ratio amounted to 87.
